Tests used:
[1] = tested on: type II collagen production; assay: Type II collagen production level (ELISA of cell supernatant) in rhIL-1α osteoarthritis in vitro model; type: cell-based; conditions: primary rat chondrocytes, rhIL-1α 5 ng/mL for 24 h, test solution given 1 h before, label = (w/v) % of D dextran 1, P poloxamer 188, T dextran 5, mixtures 1:1 v:v, HN 8.33 mg/mL, IM 5 μM
Protocol: (§1) In order to identify protein production levels of the type II collagen and aggrecan among indicator substances for osteoarthritis evaluation, each test substance was administered to chondrocytes at 1 hour before the treatment with rhIL-1α, and then the cell was cultured for 24 hours. Type II collagen and aggrecan are cartilage substrate compositions. Thus, when the production levels thereof are increased, the cartilage substrate protection effect may be excellent.
(§2) In this connection, cell supernatant (culture solution) was collected and centrifuged at 13,000 rpm for 10 minutes, and thus only the supernatant was used for analysis. The centrifuged cell supernatant was analyzed using Aggrecan ELISA Kit (Rat Aggrecan ELISA Kit, Mybiosource, MBS261073) and with reference to the manuals of the type II Collagen (Type II Collagen detection Kit, Multi-Species, Chondrex, 6018). For accurate analysis, absorbance was measured at 450 nm and 490 nm using an ELISA reader (EPOCH 2 microplate reader, BioTek, Instruments, VT, USA) of the entire wavelength range. The contents (ng/mL) of the type II collagen and aggrecan were quantified according to the calibration curve.

aggrecan production = assay: Aggrecan production level (ELISA of cell supernatant) in rhIL-1α osteoarthritis in vitro model; type: cell-based; conditions: primary rat chondrocytes, rhIL-1α 5 ng/mL for 24 h, test solution given 1 h before, label = (w/v) % of D dextran 1, P poloxamer 188, T dextran 5, mixtures 1:1 v:v, HN 8.33 mg/mL, IM 5 μM
Protocol: as §1, §2

In the case of `COc1ccc2c(c1)c(CC(=O)O)c(C)n2C(=O)c1ccc(Cl)cc1` [IM, indomethacin], the “Type II Collagen Mean” value [1] is reported as 127.3 ng/mL and the “Aggrecan Mean” value (aggrecan production) is reported as 1.573 ng/mL.

Source: US11801260B2, “Compositions for treating joint or connective tissue disease comprising dextran or poloxamer” (MEDICINE PARK CO., LTD, priority 2017, dated 2023)
